## Measured affinities in a library of Ab-95 light chain variants

All variants were tested on one target, the spike HR2 peptide PDVDLGDISGINAS (SARS-CoV-2).

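The starting antibody came from a phage panning campaign against this peptide. AAYL52 was designed without a model: most single CDR substitutions and a random sample of double and triple ones. Affinity was read by AlphaSeq, a pooled yeast mating assay with surface-displayed partners. Pairs that bind mate more often; barcode pairs of the diploids are counted by sequencing. A regression on co-assayed BCL2-family reference pairs converts the normalised counts of each replicate to an apparent Kd. Each pool was mated in three replicate cultures.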

Parent scFv Ab-95: VH joined to VL by three GGGGS repeats. Changes lie in the light chain CDRs alone.
VH: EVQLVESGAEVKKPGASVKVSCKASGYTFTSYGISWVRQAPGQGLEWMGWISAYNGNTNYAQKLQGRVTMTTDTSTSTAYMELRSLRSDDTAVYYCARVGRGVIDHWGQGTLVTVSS
VL: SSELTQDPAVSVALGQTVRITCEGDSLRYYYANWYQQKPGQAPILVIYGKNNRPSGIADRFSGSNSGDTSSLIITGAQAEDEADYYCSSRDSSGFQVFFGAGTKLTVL

Positions count from residue 1 of the parent VL; Y29R puts R in place of Y.
Affinities are written as log10 Kd with Kd in nM; a lower number is a better binder.
An entry "nd" has no value in the source: the pair was not observed among the diploids in that replicate. This suggests poor binding but is not conclusive.

changes	log10 Kd, replicates	empty controls
Y29R+G49V+N51S	5.06 / 3.68 / nd	3 of 9 (4.23)
G49R+S55W+R90V	3.95 / nd / nd	3 of 9 (3.73)
L27I+Y31I+A32W	1.84 / 1.57 / 1.19	2 of 9 (3.60)
A32G+Q96V+V97Y	4.14 / 3.24 / nd	4 of 9 (4.17)
S89T+V97E	3.11 / nd / 3.21	3 of 9 (3.31)
Y31K+S93K+Q96F	nd / nd / nd	2 of 9 (3.35)
G49A+K50N+N52I	2.92 / 2.53 / 3.00	1 of 9 (4.43)
Y29T+K50F	3.29 / 2.81 / 2.40	3 of 9 (3.88)
E23F+D25A+A32I	4.49 / nd / nd	1 of 9 (3.86)
L27K+Y31L+P54G	nd / 5.52 / 3.32	3 of 9 (4.23)
S55K+S92V+F98I	2.68 / 2.48 / 1.62	1 of 9 (3.61)
S26D+Y30G+R90V	nd / 3.51 / nd	2 of 9 (3.49)
S26A+S55E+S93I	2.22 / 1.94 / 2.01	0 of 9
N51Y+R53M+S55T	nd / nd / nd	1 of 9 (2.40)
E23A+N33A+R90A	nd / 5.64 / nd	3 of 9 (4.35)
A32Q+S55Q+S92Q	4.04 / 4.48 / 4.73	4 of 9 (3.55)
R28G+S89M+S93A	3.44 / 2.52 / 2.16	5 of 9 (3.74)
Y31V+S88Q+S93R	4.05 / 3.55 / 3.95	2 of 9 (3.35)
S26D+A32K+S93E	4.24 / nd / nd	1 of 9 (3.77)
G24E+N51R+Q96C	nd / 4.40 / 3.71	1 of 9 (3.80)
S26N+Y30K+F98Y	2.35 / 2.18 / 2.18	4 of 9 (3.87)
N33A+G94W+F95H	4.47 / 4.46 / nd	4 of 9 (4.62)
G24D+D25W+F95Q	nd / nd / nd	1 of 9 (3.07)
L27P+Y31R+Q96S	nd / 5.54 / nd	2 of 9 (3.88)
R28I+P54F+D91Y	3.22 / 5.10 / nd	2 of 9 (4.15)
L27F+G49I+V97S	3.23 / 5.05 / nd	1 of 9 (4.55)
G49M+K50A+Q96W	3.95 / nd / 3.45	2 of 9 (4.15)
R28S+Q96D+V97F	2.73 / 2.73 / 2.16	1 of 9 (3.47)
D91P+Q96T	3.17 / 2.44 / 2.57	6 of 9 (3.53)
N51F+S89M+F98M	4.85 / 3.80 / nd	1 of 9 (3.44)
E23L+Y31Q+N52K	2.67 / 2.51 / 2.43	5 of 9 (4.10)
N33F+N52K+D91M	4.09 / 3.02 / nd	5 of 9 (3.74)
G24Q+A32G+G94W	nd / nd / nd	2 of 9 (3.30)
Y31K+G49T+P54N	2.37 / 1.85 / 1.87	2 of 9 (3.93)
D25M+A32T+S55P	2.74 / 2.72 / 2.23	3 of 9 (3.35)
N52M+S88H+Q96T	nd / nd / nd	2 of 9 (3.11)
R53F+S92W+V97Q	nd / 5.35 / nd	3 of 9 (2.98)
Y30V+G94N+V97N	nd / nd / nd	1 of 9 (2.66)
D25Q+Y31Q+F95N	3.47 / 2.55 / nd	0 of 9
N52V+G94R	3.27 / 2.68 / 2.35	6 of 9 (4.14)
G24A+D25I+S55Q	4.19 / 3.04 / nd	4 of 9 (4.37)
E23M+K50I+R90H	3.22 / 2.89 / 2.56	3 of 9 (3.59)

For reference, 2 entries of the list once more:

changes	log10 Kd, replicates	empty controls
L27K+Y31L+P54G	nd / 5.52 / 3.32	3 of 9 (4.23)
L27I+Y31I+A32W	1.84 / 1.57 / 1.19	2 of 9 (3.60)

For reference, the parent read 2.31 as the reference entry and 2.25 as a member of this library.
Background: pairings of library AAYL52 with three empty control strains gave a value in 28% of cases (median 3.91, 5th percentile 2.90). Values in that range, when seen in few replicates, are hard to tell from nonspecific mating. Also given: how often the same scFv was detected with the empty control strains, with their mean in brackets.

Source: Engelhart et al. 2022 (doi:10.1038/s41597-022-01779-4), MIT Lincoln Laboratory and A-Alpha Bio; data file from the FLAb repository.